Laboratory results taken from US7696246B2 (Ligand Pharmaceuticals Incorporated, priority 1999, dated 2010).

By UniProt entry, the sequences of proteins in these tests, tags left out. Where a name states a change or a piece, a line headed by the entry shows the natural chain unless it says otherwise.
UniProt P10275: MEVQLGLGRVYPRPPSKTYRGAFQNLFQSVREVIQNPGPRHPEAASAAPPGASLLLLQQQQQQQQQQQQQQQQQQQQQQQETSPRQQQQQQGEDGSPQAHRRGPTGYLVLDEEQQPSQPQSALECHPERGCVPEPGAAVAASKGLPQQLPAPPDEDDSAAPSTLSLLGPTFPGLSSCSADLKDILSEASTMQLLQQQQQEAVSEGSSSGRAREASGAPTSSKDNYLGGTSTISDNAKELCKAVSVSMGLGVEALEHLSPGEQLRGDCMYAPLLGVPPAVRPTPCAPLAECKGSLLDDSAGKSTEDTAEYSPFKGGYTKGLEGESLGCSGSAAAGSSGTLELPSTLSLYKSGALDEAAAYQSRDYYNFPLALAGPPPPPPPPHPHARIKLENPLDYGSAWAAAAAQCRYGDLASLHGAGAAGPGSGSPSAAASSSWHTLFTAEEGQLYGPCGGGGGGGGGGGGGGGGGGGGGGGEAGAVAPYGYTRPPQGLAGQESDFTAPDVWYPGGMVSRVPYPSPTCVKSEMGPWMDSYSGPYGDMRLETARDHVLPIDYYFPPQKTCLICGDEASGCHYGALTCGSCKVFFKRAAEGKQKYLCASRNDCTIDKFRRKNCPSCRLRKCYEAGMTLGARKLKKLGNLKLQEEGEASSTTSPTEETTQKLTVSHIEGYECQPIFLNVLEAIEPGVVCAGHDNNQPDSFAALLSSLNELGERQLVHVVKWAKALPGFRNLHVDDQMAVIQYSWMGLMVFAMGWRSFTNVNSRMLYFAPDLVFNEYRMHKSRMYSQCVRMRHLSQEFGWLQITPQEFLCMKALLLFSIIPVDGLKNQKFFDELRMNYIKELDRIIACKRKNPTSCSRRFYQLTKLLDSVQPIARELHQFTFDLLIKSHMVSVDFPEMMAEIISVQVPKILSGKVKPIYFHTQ

Tests used:
human AR [1] = biological target: T1, human AR (Homo sapiens, UniProt P10275); assay: AR whole cell competitive binding assay (COS-1 cells, 3H-DHT); conditions: read-out: AR Binding Ki
human AR [2] = biological target: T1, human AR; assay: Co-transfection assay, AR agonist activity (CV-1 cells, MTV-LUC reporter); conditions: read-out: AR Agonist CV-1 Cells Potency
human AR [3] = biological target: T1, human AR; assay: Co-transfection assay, AR antagonist activity (CV-1 cells, in presence of DHT); conditions: read-out: AR Antagonist CV-1 Cells Potency

Row | SMILES | Ki (human AR [1]) | EC50 (human AR [2]) | IC50 (human AR [3])
1 | Cc1cc(=O)[nH]c2ccc(N(CC(F)(F)F)CC(F)(F)F)cc12 [Compound 377, 6-(bis-2,2,2-Trifluoroethyl)amino-4-methyl-2(1H)-quinolinone] | 1.4 nM | – | –
2 | CCCCN(CCCC)c1ccc2[nH]c(=O)cc(C(F)(F)F)c2c1 [Compound 220, 6-Dibutylamino-4-trifluoromethyl-2(1H)-quinolinone] | 222 nM | – | –
3 | CCC(C)c1cc2c(C(F)(F)F)cc(=O)[nH]c2cc1N (stereo not drawn) [Compound 581, 7-Amino-6-sec-butyl-4-trifluoromethyl-2(1H)-quinolinone] | – | 65 nM | –
4 | CCCNc1ccc2c(C(F)(F)F)cc(=O)[nH]c2c1 [Compound 513, 7-Propylamino-4-trifluoromethyl-2(1H)-quinolinone] | 37 nM | – | –
5 | CC(C)Nc1ccc2c(C(F)(F)F)cc(=O)[nH]c2c1 [Compound 514, 7-Isopropylamino-4-trifluoromethyl-2(1H)-quinolinone] | 79 nM | – | –
6 | CCCNc1ccc2[nH]c(=O)cc(C(F)(F)F)c2c1 [Compound 204, 6-Propylamino-4-trifluoromethyl-2(1H)-quinolinone] | 54 nM | 2020 nM | –
7 | O=c1cc(C(F)(F)F)c2ccc(NCC(F)(F)C(F)(F)F)cc2[nH]1 [Compound 520, 7-(2,2,3,3,3-Pentafluoropropyl)amino-4-trifluoromethyl-2(1H)-quinolinone] | 36 nM | – | 58 nM
8 | CCN(c1ccc2[nH]c(=O)cc(C(F)(F)F)c2c1)C(C)C [Compound 239, 6-(N-Ethyl-N-isopropyl)amino-4-trifluoromethyl-2(1H)-quinolinone] | 7.4 nM | – | –
9 | C=CC(C)(C)Nc1ccc2c(C(F)(F)F)cc(=O)[nH]c2c1 [Compound 559, 7-(1,1-Dimethylallyl)amino-4-trifluoromethyl-2(1H)-quinolinone] | 118 nM | – | 122 nM
